From paper PMC5030704 (Scientific Reports, 2016)

Protein sequences, listed by entry. Tags and fused reporters are not part of them. Residues count along the entry.
UniProt Q9UKE5, 25-289 limits assumed: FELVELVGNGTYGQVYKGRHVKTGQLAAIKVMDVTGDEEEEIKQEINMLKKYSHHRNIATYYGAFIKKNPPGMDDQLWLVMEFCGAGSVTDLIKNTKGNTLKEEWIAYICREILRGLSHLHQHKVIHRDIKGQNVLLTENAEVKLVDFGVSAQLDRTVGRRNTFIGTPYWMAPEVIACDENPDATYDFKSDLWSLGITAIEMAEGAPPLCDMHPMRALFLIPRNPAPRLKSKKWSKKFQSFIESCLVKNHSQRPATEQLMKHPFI

Biological target: T1, TNIK (Homo sapiens, UniProt Q9UKE5)
T1 construct: kinase domain, DNA-tagged, KINOMEscan commercial panel
Experiment: KINOMEscan competition binding (immobilised reference ligand, qPCR)
Conditions: read-out: % Ctrl / 10 μM
Excerpt: KINOMEscan competition binding (immobilised reference ligand, qPCR) on TNIK

**Q.** How did the remaining binding at 10 µM turn out when `CCN(CC)CCNC(=O)c1c(C)[nH]c(/C=C2\C(=O)Nc3ccc(F)cc32)c1C` [Sunitinib] was run?
**A.** Its remaining binding at 10 µM is 0%.
